The target of this test is CsgA from E. coli (residues 21-151), without its signal sequence (E. coli) (UniProt P28307).

One substance from publication PMC8729806, “Chaperones mainly suppress primary nucleation during formation of functional amyloid required for bacterial biofilm formation†” (Chemical Science, 2021) can be followed below.

“engineered monomeric TTR variant (M-TTR, F87M/L110M) (from UniProt P02766 21-147) (natural protein)” yielded a fold reduction of the primary nucleation rate constant kn of spontaneous CsgA fibrillation (ThT kinetics, Amylofit), at 2 μM M-TTR (fold reduction) of 6.
